B1: FLAG-GPR84-eYFP, wild type [human] / β-arrestin-1 fused to nano-luciferase [not stated] (parent)
chain 1: MGDKGTRVFKKASPNGKLTVYLGKRDFVDHIDLVDPVDGVVLVDPEYLKERRVYVTLTCAFRYGREDLDVLGLTFRKDLFVANVQSFPPAPEDKKPLTRLQERLIKKLGEHAYPFTFEIPPNLPCSVTLQPGPEDTGKACGVDYEVKAFCAENLEEKIHKRNSVRLVIRKVQYAPERPGPQPTAETTRQFLMSDKPLHLEASLDKEIYYHGEPISVNVHVTNNTNKTVKKIKISVRQYADICLFNTAQYKCPVAMEEADDTVAPSSTFCKVYTLTPFLANNREKRGLALDGKLKHEDTNLASSTLLREGANREILGIIVSYKVKVKLVVSRGGLLGDLASSDVAVELPFTLMHPKPKEEPPHREVPENETPVDTNLIELDTNDDDIVFEDFARQRLKGMKDDKEEEEDGTGSPQLNNR
chain 2: MWNSSDANFSCYHESVLGYRYVAVSWGVVVAVTGTVGNVLTLLALAIQPKLRTRFNLLIANLTLADLLYCTLLQPFSVDTYLHLHWRTGATFCRVFGLLLFASNSVSILTLCLIALGRYLLIAHPKLFPQVFSAKGIVLALVSTWVVGVASFAPLWPIYILVPVVCTCSFDRIRGRPYTTILMGIYFVLGLSSVGIFYCLIHRQVKRAAQALDQYKLRQASIHSNHVARTDEAMPGRFQELDSRLASGGPSEGISSEPVSAATTQTLEGDSSEVGDQINSKRAKQMAEKSPPEASAKAQPIKGARRAPDSSSEFGKVTRMCFAVFLCFALSYIPFLLLNILDARVQAPRVVHMLAANLTWLNGCINPVLYAAMNRQFRQAYGSILKRGPRSFHRLH

Variants of: B1
Assay: BRET β-arrestin-1 recruitment
Settings: with β-arrestin-1 fused to nano-luciferase, read off a plot
[1] = agonist OX04529, highest concentration point, log[agonist (M)] = -5
[2] = agonist OX04539, highest concentration point, log[agonist (M)] = -5
[3] = agonist OX04954, highest concentration point, log[agonist (M)] = -5

| Variant | response [1] | response [2] | response [3] | response (agonist OX04529, highest concentration point, log[agonist (M)] = -6, parent value read at the same concentration) | response (agonist OX04539, highest concentration point, log[agonist (M)] = -6, parent value read at the same concentration) | response (agonist OX04954, highest concentration point, log[agonist (M)] = -6, parent value read at the same concentration) |
| --- | --- | --- | --- | --- | --- | --- |
| chain 2 MWNSSDANFSCYHESVLGYRYVAVSWGVVVAVTGTVGNVLTLLALAIQPKLRTRFNLLIANLTLADLLYCTLLQPFSVDTYLHLHWRTGATFCRVFGLLLFASASVSILTLCLIALGRYLLIAHPKLFPQVFSAKGIVLALVSTWVVGVASFAPLWPIYILVPVVCTCSFDRIRGRPYTTILMGIYFVLGLSSVGIFYCLIHRQVKRAAQALDQYKLRQASIHSNHVARTDEAMPGRFQELDSRLASGGPSEGISSEPVSAATTQTLEGDSSEVGDQINSKRAKQMAEKSPPEASAKAQPIKGARRAPDSSSEFGKVTRMCFAVFLCFALSYIPFLLLNILDARVQAPRVVHMLAANLTWLNGCINPVLYAAMNRQFRQAYGSILKRGPRSFHRLH [chain 2 N104A] | 2 % of OX04539 | 100 % of OX04539 | 3 % of OX04539 |  |  |  |
| chain 2 MWNSSDANFSCYHESVLGYRYVAVSWGVVVAVTGTVGNVLTLLALAIQPKLRTRFNLLIANLTLADLLYCTLLQPFSVDTYLHLHWRTGATFCRVFGLLLFASNSVSILTLCLIALGRYLLIAHPKLFPQVFSAKGIVLALVSTWVVGVASFAPLWPIYILVPVVCTCSFDRIRGRPYTTILMGIYFVLGLSSVGIFYCLIHRQVKRAAQALDQYKLRQASIHSNHVARTDEAMPGRFQELDSRLASGGPSEGISSEPVSAATTQTLEGDSSEVGDQINSKRAKQMAEKSPPEASAKAQPIKGARRAPDSSSEFGKVTRMCFAVFLCFALSYIPFLLLNILDARVQAPRVVHMLAANLTWLAGCINPVLYAAMNRQFRQAYGSILKRGPRSFHRLH [chain 2 N362A] | 0 % of OX04539 | 100 % of OX04539 | 6 % of OX04539 |  |  |  |
| chain 2 MWNSSDANFSCYHESVLGYRYVAVSWGVVVAVTGTVGNVLTLLALAIQPKLRTRFNLLIANLTLADLLYCTLLQPFSVDTYLHLHWRTGATFCRVFGLLLFASNSVSILTLCLIALGRYLLIAHPKLFPQVFSAKGIVLALVSTWVVGVASFAPLWPIYILVPVVCTCSFDRIRGRPYTTILMGIYFVLGLSSVGIFYCLIHRQVKRAAQALDQYKLRQASIHSNHVARTDEAMPGRFQELDSRLASGGPSEGISSEPVSAATTQTLEGDSSEVGDQINSKRAKQMAEKSPPEASAKAQPIKGARRAPDSSSEFGKVTRMCFAVFLCFALSFIPFLLLNILDARVQAPRVVHMLAANLTWLNGCINPVLYAAMNRQFRQAYGSILKRGPRSFHRLH [chain 2 Y332F] | 8 % of OX04539 | 100 % of OX04539 | 38 % of OX04539 |  |  |  |
| chain 2 MWNSSDANFSCYHESVLGYRYVAVSWGVVVAVTGTVGNVLTLLALAIQPKLRTRFNLLIANLTLADLLYCTLLQPFSVDTYLHLHWRTGATFCRVFGLLLFASNSVSILTLCLIALGRYLLIAHPKLFPQVFSAKGIVLALVSTWVVGVASFAPLWPIYILVPVVCTCSFDRIRGRPYTTILMGIYFVLGLSSVGIFYCLIHRQVKRAAQALDQYKLRQASIHSNHVARTDEAMPGRFQELDSRLASGGPSEGISSEPVSAATTQTLEGDSSEVGDQINSKRAKQMAEKSPPEASAKAQPIKGARRAPDSSSEFGKVTRMCFAVFLCFALAYIPFLLLNILDARVQAPRVVHMLAANLTWLNGCINPVLYAAMNRQFRQAYGSILKRGPRSFHRLH [chain 2 S331A] |  |  |  | 23 % of OX04539 | 100 % of OX04539 | 66 % of OX04539 |

From paper PMC13642346
